Assay results reported in patent publication US10870629B2, “18F-labelled compound for prostate cancer diagnosis, and use thereof” (FUTURECHEM CO., LTD., priority 2017, dated 2020).

The chains behind the UniProt entries cited, without tags or fusion partners.
UniProt Q04609, whole entry: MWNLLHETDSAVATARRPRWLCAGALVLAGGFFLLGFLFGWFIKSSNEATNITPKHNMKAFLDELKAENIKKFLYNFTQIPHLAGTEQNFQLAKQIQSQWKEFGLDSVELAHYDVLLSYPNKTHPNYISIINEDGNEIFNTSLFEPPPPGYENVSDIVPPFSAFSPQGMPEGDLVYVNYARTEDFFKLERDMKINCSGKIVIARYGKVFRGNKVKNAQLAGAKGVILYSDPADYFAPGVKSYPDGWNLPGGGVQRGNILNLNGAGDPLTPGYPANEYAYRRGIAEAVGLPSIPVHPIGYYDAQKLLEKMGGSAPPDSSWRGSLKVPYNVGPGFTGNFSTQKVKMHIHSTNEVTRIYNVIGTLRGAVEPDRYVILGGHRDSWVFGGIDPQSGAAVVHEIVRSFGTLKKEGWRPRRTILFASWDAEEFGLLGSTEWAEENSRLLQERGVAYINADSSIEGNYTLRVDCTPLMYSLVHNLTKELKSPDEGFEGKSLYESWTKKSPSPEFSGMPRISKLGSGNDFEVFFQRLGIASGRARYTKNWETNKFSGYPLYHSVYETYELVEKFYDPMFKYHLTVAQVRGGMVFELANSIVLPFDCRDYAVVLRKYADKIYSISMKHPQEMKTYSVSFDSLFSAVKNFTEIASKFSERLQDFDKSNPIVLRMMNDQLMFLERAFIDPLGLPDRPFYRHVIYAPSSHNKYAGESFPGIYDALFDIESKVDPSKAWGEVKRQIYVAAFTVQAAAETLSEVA

Tests used:
[1] = molecular target: PSMA protein (Homo sapiens, UniProt Q04609); assay: Measurement of binding capacity: competition with [125I]15 on 22RV1 cells; conditions: for IC50: read-out: IC50 (Mean ± SD), [125I]15 0.1 nM, 37° C., 2 hours
[2] = system: PSMA+ PC-3 PIP tumor; assay: Biodistribution test with prostate cancer model mouse
[3] = system: PSMA+ PC-3 PIP tumors; assay: MicroPET/CT in mice transplanted with prostate cancer cell lines
[4] = system: PC-3 PIP; assay: Measurement of cellular internalization; type: cell-based, human
Text: Then, the membrane protein and the cytoplasmic protein were separated by using Mem-PER Plus Membrane Protein Extraction Kit and NE-PER Nuclear and Cytoplasmic Extraction Kit (ThermoFisher Scientific). The internalization rate (%) was confirmed by obtaining the radioactivity ratio in the cytoplasmic protein to the total radioactivity.

[5] = 0.5 h after tail vein injection
[6] = MicroPET/CT, FIGS. 4A to 4C, versus Example 7-6 and Comparative Example 1

## O=C(O)CC[C@H](NC(=O)N[C@@H](CCCCNC(=O)N(Cc1ccncc1)Cc1cn(CC[18F])nn1)C(=O)O)C(=O)O
[1]
  IC50: 0.0653 µM

## O=C(O)CC[C@H](NC(=O)N[C@@H](CCCCNC(=O)N(Cc1ccncc1)Cc1cn(CCOCCOCC[18F])nn1)C(=O)O)C(=O)O
[1]
  IC50: 0.284 µM

## O=C(O)CC[C@H](NC(=O)N[C@@H](CCCCNC(=O)NCc1cn(CCOCCOCC[18F])nn1)C(=O)O)C(=O)O
[1]
  IC50: 0.0646 µM

## O=C(O)CC[C@H](NC(=O)N[C@@H](CCCCNC(=O)N(Cc1cn(CC[18F])nn1)c1ccncc1)C(=O)O)C(=O)O
[2]; [5]
  PIP to blood: 35.64 ± 25.01
  PIP to liver: 17.35 ± 4.34
  PIP to muscle: 47.39 ± 38.05
  PIP to spleen: 7.74 ± 6.03
[2]; 1 h after tail vein injection
  PIP to blood: 98.69 ± 30.64
  PIP to liver: 15.92 ± 1.95
  PIP to muscle: 86.15 ± 29.07
  PIP to spleen: 13.77 ± 5.53
[2]; 2 h after tail vein injection
  PIP to blood: 487.24 ± 354.87
  PIP to liver: 18.47 ± 7.63
  PIP to muscle: 334.14 ± 260.49
  PIP to spleen: 58.80 ± 53.63
[2]; 4 h after tail vein injection
  PIP to blood: 766.82 ± 331.65
  PIP to liver: 20.93 ± 7.40
  PIP to muscle: 533.90 ± 188.93
  PIP to spleen: 128.24 ± 95.38
[2]; in words
  normal tissue intake rate compared to tumor: superior
[3]; [6]
  tumor/liver (tumor to liver ratio) intake ratio: relatively higher
  tumor/muscle (tumor to muscle ratio) intake ratio: relatively higher
[3]; mouse, in vivo
  tumor binding (MicroPET/CT, FIG. 3): selectively bound to PSMA+PC-3 PIP tumors
[4]; 30 min
  % Internalization ratio (Mean ± SD): 94.24 ± 0.80%
[4]; 60 min
  % Internalization ratio (Mean ± SD): 92.33 ± 1.89%
[4]; 120 min
  % Internalization ratio (Mean ± SD): 85.77 ± 6.12%
[4]; 240 min
  % Internalization ratio (Mean ± SD): 95.47 ± 1.52%
[1]
  IC50 value worse, times, compared with [18F]1-6: more than 70 times
  IC50: 0.391 µM

## O=C(O)CC[C@H](NC(=O)N[C@@H](CCCCNC(=O)N(Cc1cn(CCOCCOCC[18F])nn1)c1ccncc1)C(=O)O)C(=O)O
[1]
  IC50 value worse, times, compared with [18F]1-6: more than 40 times
  IC50: 0.236 µM
